# CycPeptMPDB entries from one study

Values of Townsend et al. 2020, doi:10.26434/chemrxiv.13335941.v1, as listed in CycPeptMPDB.

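Lipid, pH, incubation time, direction and concentration are not recorded in the data file. The list need not hold all peptides of the study. Entries at the database's floor value (log10 P of -10) are not listed.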

PAMPA is the parallel artificial membrane permeability assay, which has no cells and reads passive diffusion. Values are log10 P with P in cm/s, so -5 is more permeable than -7.

{"smiles": "CC(C)C[C@@H]1NC(=O)C[C@H](Cc2ccccc2)NC(=O)[C@H](Cc2ccccc2)NC(=O)[C@@H](CC(C)C)N(C)C(=O)[C@H]2CCCN2C(=O)[C@@H](CC(C)C)N(C)C1=O", "PAMPA (log10 cm/s)": "-5.29"}
{"smiles": "CC(C)C[C@@H]1NC(=O)[C@H](C)N(C)C(=O)[C@H](Cc2ccccc2)NC(=O)[C@@H](CC(C)C)NC(=O)[C@H]2CCCN2C(=O)[C@H](CC(C)C)N(C)C1=O", "PAMPA (log10 cm/s)": "-6.19"}
{"smiles": "CC(C)C[C@@H]1C(=O)N[C@H](CC(C)C)C(=O)N2CCC[C@H]2C(=O)N(C)[C@@H](CC(C)C)C(=O)N[C@@H](Cc2ccccc2)C(=O)N2CCC[C@H]2C(=O)N(C)[C@@H](C)C(=O)N1C", "PAMPA (log10 cm/s)": "-5.03"}
{"smiles": "CC(C)C[C@H]1NC(=O)[C@H]2CCCN2C(=O)[C@@H](CC(C)C)NC(=O)[C@H](CC(C)C)N(C)C(=O)[C@@H](C)N(C)C(=O)[C@H](Cc2ccccc2)NC1=O", "PAMPA (log10 cm/s)": "-5.18"}
{"smiles": "CC(C)C[C@@H]1NC(=O)[C@@H]2CCCN2C(=O)C[C@H](Cc2ccccc2)NC(=O)[C@@H](CC(C)C)NC(=O)[C@H](C)NC(=O)[C@@H]2CCCN2C(=O)[C@H](Cc2ccccc2)NC1=O", "PAMPA (log10 cm/s)": "-6.22"}
{"smiles": "CC(C)C[C@@H]1NC(=O)C[C@H](Cc2ccccc2)NC(=O)[C@@H]2CCCN2C(=O)[C@H](Cc2ccccc2)NC(=O)[C@@H](CC(C)C)NC(=O)[C@@H]2CCCN2C(=O)[C@@H](CC(C)C)NC1=O", "PAMPA (log10 cm/s)": "-5.75"}
{"smiles": "CC(C)C[C@@H]1NC(=O)[C@H](C)N(C)C(=O)[C@H]2CCCN2C(=O)[C@H](Cc2ccccc2)NC(=O)CN(Cc2ccccc2)C(=O)[C@@H]2CCCN2C(=O)[C@@H](CC(C)C)NC1=O", "PAMPA (log10 cm/s)": "-5.50"}
{"smiles": "CC(C)C[C@@H]1C(=O)N[C@@H](Cc2ccccc2)C(=O)N[C@H](C)C(=O)N(C)[C@H](CC(C)C)C(=O)N[C@H](CC(C)C)C(=O)N2CCC[C@@H]2C(=O)N1C", "PAMPA (log10 cm/s)": "-5.43"}
{"smiles": "CCCN1CC(=O)N[C@@H](CC(C)C)C(=O)N(C)[C@@H](CC(C)C)C(=O)N2CCC[C@H]2C(=O)N[C@@H](CC(C)C)C(=O)N[C@@H](Cc2ccccc2)C(=O)N2CCC[C@H]2C1=O", "PAMPA (log10 cm/s)": "-5.77"}
{"smiles": "CC(C)C[C@@H]1NC(=O)[C@@H](CC(C)C)NC(=O)C[C@H](Cc2ccccc2)NC(=O)[C@@H]2CCCN2C(=O)[C@H](Cc2ccccc2)NC(=O)[C@@H](CC(C)C)NC(=O)[C@H]2CCCN2C1=O", "PAMPA (log10 cm/s)": "-5.50"}
{"smiles": "CC(C)C[C@@H]1NC(=O)[C@@H](C)NC(=O)[C@H]2CCCN2C(=O)[C@H](Cc2ccccc2)NC(=O)[C@H](CC(C)C)N(C)C(=O)[C@H]2CCCN2C(=O)CN(Cc2ccccc2)C1=O", "PAMPA (log10 cm/s)": "-6.12"}
{"smiles": "CC(C)C[C@@H]1NC(=O)[C@@H](CC(C)C)NC(=O)[C@@H](C)N(C)C(=O)[C@H](Cc2ccccc2)NC(=O)CN(Cc2ccccc2)C(=O)[C@H]2CCCN2C1=O", "PAMPA (log10 cm/s)": "-5.28"}
{"smiles": "CC(C)C[C@H]1C(=O)N(C)[C@@H](CC(C)C)C(=O)N2CCC[C@H]2C(=O)N(C)[C@@H](CC(C)C)C(=O)N[C@@H](Cc2ccccc2)C(=O)N[C@H](C)C(=O)N1C", "PAMPA (log10 cm/s)": "-5.22"}
{"smiles": "CC(C)C[C@@H]1C(=O)N(Cc2ccccc2)CC(=O)N2CCC[C@H]2C(=O)N[C@H](CC(C)C)C(=O)N[C@@H](Cc2ccccc2)C(=O)N2CCC[C@@H]2C(=O)N[C@@H](Cc2ccccc2)CC(=O)N1C", "PAMPA (log10 cm/s)": "-5.58"}
{"smiles": "CC(C)C[C@@H]1NC(=O)[C@@H]2CCCN2C(=O)[C@H](CC(C)C)N(C)C(=O)[C@@H](CC(C)C)NC(=O)[C@@H](C)N(C)C(=O)[C@@H]2CCCN2C(=O)[C@H](Cc2ccccc2)NC1=O", "PAMPA (log10 cm/s)": "-6.86"}
{"smiles": "CCCN1CC(=O)N[C@H](CC(C)C)C(=O)N[C@H](CC(C)C)C(=O)N2CCC[C@H]2C(=O)N[C@@H](CC(C)C)C(=O)N[C@@H](Cc2ccccc2)C1=O", "PAMPA (log10 cm/s)": "-5.08"}

Excerpt, the final 2 entries:

| compound | PAMPA (log10 cm/s) |
|---|---|
| CC(C)C[C@@H]1NC(=O)[C@@H]2CCCN2C(=O)[C@H](CC(C)C)N(C)C(=O)[C@@H](CC(C)C)NC(=O)[C@@H](C)N(C)C(=O)[C@@H]2CCCN2C(=O)[C@H](Cc2ccccc2)NC1=O | -6.86 |
| CCCN1CC(=O)N[C@H](CC(C)C)C(=O)N[C@H](CC(C)C)C(=O)N2CCC[C@H]2C(=O)N[C@@H](CC(C)C)C(=O)N[C@@H](Cc2ccccc2)C1=O | -5.08 |